Our source for the pKB values is ChEMBL document CHEMBL1153678, “Bromobenzofurans : a new class of potent, non-peptide antagonists of angiotensin II” (Bioorg Med Chem Lett, 1991).

Sequences of proteins named here, by UniProt entry; tags and fusion partners are left off.
UniProt P34976, whole entry: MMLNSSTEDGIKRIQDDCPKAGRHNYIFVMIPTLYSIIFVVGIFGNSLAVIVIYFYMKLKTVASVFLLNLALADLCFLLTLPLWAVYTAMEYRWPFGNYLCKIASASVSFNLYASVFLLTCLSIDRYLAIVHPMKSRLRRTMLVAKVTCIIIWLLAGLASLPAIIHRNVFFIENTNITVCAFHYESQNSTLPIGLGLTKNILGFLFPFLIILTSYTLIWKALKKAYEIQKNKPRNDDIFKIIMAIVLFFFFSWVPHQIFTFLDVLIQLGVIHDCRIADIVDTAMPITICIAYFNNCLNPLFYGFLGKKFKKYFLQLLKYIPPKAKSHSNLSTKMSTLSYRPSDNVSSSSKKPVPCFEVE

One may read the pKB as the negative decadic logarithm of the KB, by convention in mol/L. A high value points to a low KB.

This experiment has as its target Type-1 angiotensin II receptor (Oryctolagus cuniculus) (UniProt P34976). Put plainly: Angiotensin II receptor, type 1 antagonist activity in rabbit isolated thoracic aorta. Type of experiment: functional, tissue-based.

In the case of `CCCCc1nc(Cl)c(C(=O)O)n1Cc1ccc2oc(-c3ccccc3-c3nnn[nH]3)c(Br)c2c1`, the pKB was determined as 9.8.
